Measured values from paper PMC9479110.

Experiments:
Test in all cases: low-speed co-sedimentation, McGhee-von Hippel fit
[1] = target: actin filaments (skeletal muscle, long, free barbed ends) (Gallus gallus) (UniProt P68139)
[2] = target: actin filaments (skeletal muscle, long, Cdc12p-bound) (Gallus gallus) (UniProt P68139)
[3] = target: actin filaments (skeletal muscle, short, Cdc12p-assembled) (Gallus gallus) (UniProt P68139)

Kd [1]: 396 nM | Kd [2]: 303 nM | Kd [3]: 431 nM
Substance: fascin-1 (from UniProt Q16658)
